Here are results for 1 compound from patent US10202344B2, “Aryl substituted indoles and the use thereof” (Purdue Pharma L.P., priority 2010, dated 2019).

Amino acid sequences for entries named in this document (tags omitted). Chains listed by the source or under a name are the forms on record and can include a tag or linker.
UniProt Q15858, other isoform, or with tags, fused parts or gaps: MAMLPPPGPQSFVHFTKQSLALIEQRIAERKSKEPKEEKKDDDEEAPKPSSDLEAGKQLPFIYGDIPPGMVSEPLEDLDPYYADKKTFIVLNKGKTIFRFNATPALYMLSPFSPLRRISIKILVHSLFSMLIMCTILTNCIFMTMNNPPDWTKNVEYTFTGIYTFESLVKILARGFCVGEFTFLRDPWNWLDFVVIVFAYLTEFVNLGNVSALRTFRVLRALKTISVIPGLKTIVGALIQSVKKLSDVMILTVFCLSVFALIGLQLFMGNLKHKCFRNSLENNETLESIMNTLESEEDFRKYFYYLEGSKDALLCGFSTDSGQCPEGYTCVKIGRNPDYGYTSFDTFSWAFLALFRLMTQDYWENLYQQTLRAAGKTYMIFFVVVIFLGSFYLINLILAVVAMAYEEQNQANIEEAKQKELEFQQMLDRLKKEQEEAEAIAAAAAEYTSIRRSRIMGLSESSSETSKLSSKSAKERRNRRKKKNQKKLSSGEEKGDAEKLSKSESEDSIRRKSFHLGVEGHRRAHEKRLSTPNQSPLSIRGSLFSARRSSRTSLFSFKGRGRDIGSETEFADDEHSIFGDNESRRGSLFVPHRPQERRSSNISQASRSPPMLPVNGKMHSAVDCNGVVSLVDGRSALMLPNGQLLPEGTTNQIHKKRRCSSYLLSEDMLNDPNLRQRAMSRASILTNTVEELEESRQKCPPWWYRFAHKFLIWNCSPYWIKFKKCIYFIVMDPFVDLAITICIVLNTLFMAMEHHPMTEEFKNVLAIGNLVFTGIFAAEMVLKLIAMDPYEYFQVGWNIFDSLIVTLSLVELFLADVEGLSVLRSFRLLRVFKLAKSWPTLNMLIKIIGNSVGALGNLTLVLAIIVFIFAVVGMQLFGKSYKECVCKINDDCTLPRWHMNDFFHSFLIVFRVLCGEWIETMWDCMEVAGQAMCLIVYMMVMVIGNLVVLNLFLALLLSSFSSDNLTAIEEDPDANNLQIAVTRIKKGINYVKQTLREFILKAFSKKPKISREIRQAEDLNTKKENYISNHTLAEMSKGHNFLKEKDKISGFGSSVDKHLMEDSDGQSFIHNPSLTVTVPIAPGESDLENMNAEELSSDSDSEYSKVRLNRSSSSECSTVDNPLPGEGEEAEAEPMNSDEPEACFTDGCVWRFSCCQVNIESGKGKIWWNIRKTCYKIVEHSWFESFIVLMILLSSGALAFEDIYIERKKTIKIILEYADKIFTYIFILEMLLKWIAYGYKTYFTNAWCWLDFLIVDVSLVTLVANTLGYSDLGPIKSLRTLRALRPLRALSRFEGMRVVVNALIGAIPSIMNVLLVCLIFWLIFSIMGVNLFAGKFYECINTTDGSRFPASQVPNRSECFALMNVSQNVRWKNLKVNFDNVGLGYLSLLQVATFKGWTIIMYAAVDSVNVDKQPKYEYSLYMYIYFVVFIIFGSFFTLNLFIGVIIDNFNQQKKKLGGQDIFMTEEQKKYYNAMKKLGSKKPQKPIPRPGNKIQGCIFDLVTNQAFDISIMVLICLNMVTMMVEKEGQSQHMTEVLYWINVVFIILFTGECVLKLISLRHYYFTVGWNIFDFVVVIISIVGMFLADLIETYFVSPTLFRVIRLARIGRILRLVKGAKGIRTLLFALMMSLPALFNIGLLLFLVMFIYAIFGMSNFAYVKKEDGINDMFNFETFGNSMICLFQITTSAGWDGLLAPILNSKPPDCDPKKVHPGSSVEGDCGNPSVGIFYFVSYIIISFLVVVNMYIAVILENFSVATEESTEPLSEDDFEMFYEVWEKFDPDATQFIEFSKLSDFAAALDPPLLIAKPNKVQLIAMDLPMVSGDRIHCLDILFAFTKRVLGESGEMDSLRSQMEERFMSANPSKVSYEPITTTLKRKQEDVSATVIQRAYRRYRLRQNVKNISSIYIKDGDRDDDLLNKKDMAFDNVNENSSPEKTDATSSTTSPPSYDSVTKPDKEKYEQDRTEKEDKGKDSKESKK

One assay deals with hNav1.7 (Homo sapiens (Human), UniProt Q15858). Kind of assay: Electrophysiology (EP) assay, whole-cell patch clamp. It is filed as cell-based. To be noted: hNav1.7 expressing HEK-293 cells, read-out: EP Nav1.7 Ki.
The target of a further assay is human Nav1.7 (Homo sapiens (Human), UniProt Q15858). Kind of assay: FLIPR or FLIPR TETRA sodium dye assay with KCl and test article pre-incubation. Particulars: recombinant human Nav1.7 in HEK293 cells; sodium dye assay with KCl; read-out: FLIPR Nav1.7 IC50 (μM) ± SEM. It is filed as cell-based.

With `OC[C@H](O)c1nn(-c2ccc(Oc3ccc(C(F)(F)F)cc3)cc2)c2cnccc12` [Compound 166, (R)-1-(1-(4-(4-(trifluoromethyl)phenoxy)phenyl)-1H-pyrazolo[3,4-c]pyridine-3-yl)ethane-1,2-diol], the Ki at hNav1.7 came to 640 nM. On human Nav1.7, the concentration for half-maximal inhibition (IC50) is 0.486 ± 0.024 µM.
